In assay [1] the test system is phosphorylation of CDK1 at Thr14 in HCC1806 cells. In words: Cell lysate AlphaLISA assay measuring inhibition of phosphorylation of CDK1 Thr14. The settings on record: read-out: Cellular IC50, 4 hours. As for the experimental part:
(§1) Biochemical IC50 values were determined via ADP-Glo™ assay. Cellular IC50 values were determined via AlphaLISA assay.
Cell lysate AlphaLISA® assay measuring inhibition of phosphorylation of CDK1 Thr14. Inhibition of phosphorylation of CDK1 at Thr14 was determined using AlphaLISA® SureFire® Ultra™ Kit from Perkin Elmer (ALSU-PCDK1-A10K). HCC1806 cells were seeded at 2K cells per well (50 μl/well) in 384-well plates (Corning 3570) and stored overnight at 37° C. and 5% CO2. The following day, the compounds dissolved in DMSO were introduced to the cells and incubated for 4 hours at 37° C. and 5% CO2. The cells were then washed with PBS using Blue®Washer and 10 μl of lysis buffer containing protease inhibitor was added. The plate was placed on an orbital shaker (at 4° C.) for 30 minutes and stored overnight at −80° C. for complete lysing. The next day, the plates were thawed at room temperature for at least 30 min. Reagents were prepared in a dimmed light setting (<100 lumens). […] The donor mix (dilution buffer: donor beads 47:3) was then added at 5 μl per well, placed on the shaker for 2 minutes and incubated at RT for 60 minutes before reading the plates on a PHERAstar® plate reader. […]

Protein sequences, listed by entry. Tags and fused reporters are not part of them.
UniProt Q99640, whole entry: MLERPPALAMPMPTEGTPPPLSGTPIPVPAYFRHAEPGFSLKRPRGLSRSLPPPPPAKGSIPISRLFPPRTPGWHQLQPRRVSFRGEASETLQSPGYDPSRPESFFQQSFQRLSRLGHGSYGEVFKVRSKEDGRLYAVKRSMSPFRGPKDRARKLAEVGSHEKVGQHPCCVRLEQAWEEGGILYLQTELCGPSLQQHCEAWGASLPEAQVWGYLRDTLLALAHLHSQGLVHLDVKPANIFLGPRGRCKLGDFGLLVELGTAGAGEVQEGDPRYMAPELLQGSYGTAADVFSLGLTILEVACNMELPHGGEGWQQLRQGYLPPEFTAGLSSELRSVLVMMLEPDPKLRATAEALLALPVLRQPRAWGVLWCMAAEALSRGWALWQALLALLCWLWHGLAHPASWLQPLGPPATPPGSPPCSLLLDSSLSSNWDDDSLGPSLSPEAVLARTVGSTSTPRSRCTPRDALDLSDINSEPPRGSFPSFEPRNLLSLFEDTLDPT

Another assay addresses PKMYT1 (Homo sapiens, UniProt Q99640). In words: ADP-Glo PKMYT1 ATP-depletion assay. The settings on record: read-out: Biochemical IC50, 50 nM PKMYT1, 13.3 nM CDK1. Here is the method:
as §1
ADP-Glo™ PKMYT1 ATP-depletion assay. The activity of PKMYT1 is measured using a luciferase-luciferin based ATP detection reaction to quantify ATP depletion resulting from kinase-catalyzed phosphoryl transfer to CDK1 or autophosphorylation of PKMYT1. The ADP generated as a byproduct of the reaction is converted to ATP and used to drive a luciferase reaction. Test compounds were dissolved in DMSO and dispensed into Corning 3824 384-well plates prior to the experiment such that the final DMSO concentration was <1%. To the compounds was added 3 μL of PKMYT1 (93 kD, full length, N-terminal GST tag from Signal Chem). The reaction was started by the addition of 2 μL of CDK1 (58 kDa, full length, N-terminal GST tag from Signal Chem) and ATP in assay buffer (50 mM Hepes, 40 mM NaCl, 10 mM MgCl2, 1 mM DTT, 0.1 mg/mL BSA, 2.5 mM MnCl2). Final assay concentrations were 50 nM PKMYT1, 13.3 nM CDK1, and 88 µM ATP. Plates were centrifuged for 1 minute at 1000 RPM and incubated at RT for 120 minutes. […] 30 minutes after the addition, plates were placed on a PHERAstar® plate reader and read using the Luminescence Protocol, integration time at 0.5 seconds.

In the case of `COc1nc2cc(C#N)c(N)c(-c3cccc(O)c3C)c2nc1OC`, the IC50 in assay [1] is 1000 to 5000 nM; at PKMYT1, 50 to 500 nM.

For the origin of these results see patent publication US20260176270A1 (Exelixis, Inc., priority 2022, published 2026).
